# Reference: ChEMBL document CHEMBL2417445, “Access to 7β-analogs of codeine with mixed μ/δ agonist activity via 6,7-α-epoxide opening” (Bioorg Med Chem Lett, 2013)
# The chains behind the UniProt entries cited, without tags or fusion partners.
# UniProt P41143, whole entry: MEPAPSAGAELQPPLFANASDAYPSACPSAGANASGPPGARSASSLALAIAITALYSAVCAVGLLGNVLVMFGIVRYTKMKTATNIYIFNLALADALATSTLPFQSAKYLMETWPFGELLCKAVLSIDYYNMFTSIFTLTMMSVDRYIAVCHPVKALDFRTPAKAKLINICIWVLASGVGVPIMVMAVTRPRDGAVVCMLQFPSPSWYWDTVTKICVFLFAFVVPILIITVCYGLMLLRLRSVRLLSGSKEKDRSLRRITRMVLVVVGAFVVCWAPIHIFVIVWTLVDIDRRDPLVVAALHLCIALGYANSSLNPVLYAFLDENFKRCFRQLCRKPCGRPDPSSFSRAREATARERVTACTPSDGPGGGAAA
# pEC50: −log10 of the molar value.
# Target: Delta-type opioid receptor (Homo sapiens, UniProt P41143)
# Experiment: Agonist activity at human DOR assessed as inhibition of forskolin-stimulated cAMP accumulation after 30 mins by cell based TR-FRET assay
# Format: functional
smiles,measurement,value
C[C@@H](NC(=O)[C@@H](N)Cc1ccc(O)cc1)C(=O)NCC(=O)N(C)[C@@H](Cc1ccccc1)C(=O)NCCO [DAMGO],pEC50,6.40
